The values below come from patent US10682371B2, “Small molecule conjugates specifically activated in tumor microenvironment for targeting and use thereof” (priority 2014, dated 2020).

The test system of this experiment is Human breast cancer MDA-MB231 cells. In words: animal or person. Format: in vivo, nude mice. As to conditions: Mus musculus, MDA-MB-231, iv, 912 h, read-out: Inhibitory rate on tumor (Day38). The procedure:
1) Human breast cancer MDA-MB231 cells were purchased from American type culture collection (ATCC) and identified according the specification provided by ATCC. Cells were cultivated in […] (DMEM culture medium) containing 10% fetal bovine serum at 37° C. and 5% CO2. The cells were passaged for every three days and cells within the 15th passage were used.
2) Production of tumor. 5×10^6 MDA-MB231 cells were subcutaneously injected to the back of the nude mice. Mice were randomly grouped after the tumor reached at least 100 mm^3. Then treatment began and the day on which the treatment began was day 1.
3) Course of treatment. […] The drugs were administered once weekly for four weeks.
When R1 is 2-(2-Methoxyethoxy)Acetyl, and R3 is Ala, activation study and efficacy study were carried out by using compounds having different cleavable linker. The study methods are identical to those in Examples 10, 11 and 12. The in vitro activation efficiency was tested by asparagine endopeptidase and the tumor inhibition rate was tested by using human breast cancer MDA-MB231 model. […]
Regarding `CC[C@@]1(O)C(=O)OCc2c1cc1n(c2=O)Cc2cc3cc(OC(=O)OCc4ccc(NC(=O)[C@H](CC(N)=O)NC(=O)[C@@H](NC(=O)[C@@H](NC(=O)COCCOC)[C@@H](C)O)[C@@H](C)O)cc4)ccc3nc2-1` [Compound S29], the inhibition in vivo at 13.2 µmol/kg was found to be 57.4%.

Regarding `CC[C@@]1(O)C(=O)OCc2c1cc1n(c2=O)Cc2cc3cc(OC(=O)OCc4ccc(NC(=O)[C@H](CC(N)=O)NC(=O)[C@@H](NC(=O)[C@@H](NC(=O)COCCOC)[C@@H](C)O)C(C)C)cc4)ccc3nc2-1` [Compound S30], the inhibition in vivo at 13.2 µmol/kg was 47.4%. As for `CC[C@@]1(O)C(=O)OCc2c1cc1n(c2=O)Cc2cc3cc(OC(=O)OCc4ccc(NC(=O)[C@H](CC(N)=O)NC(=O)[C@H](CC(N)=O)NC(=O)[C@@H](NC(=O)COCCOC)[C@@H](C)O)cc4)ccc3nc2-1` [Compound S31], the figure is 46.5%; as for `CC[C@@]1(O)C(=O)OCc2c1cc1n(c2=O)Cc2cc3cc(OC(=O)OCc4ccc(NC(=O)[C@H](CC(N)=O)NC(=O)[C@H](C)NC(=O)[C@@H](NC(=O)COCCOC)C(C)C)cc4)ccc3nc2-1` [Compound S32], 56.5%; as for `CC[C@@]1(O)C(=O)OCc2c1cc1n(c2=O)Cc2cc3cc(OC(=O)OCc4ccc(NC(=O)[C@H](CC(N)=O)NC(=O)[C@@H](NC(=O)[C@@H](NC(=O)COCCOC)C(C)C)[C@@H](C)O)cc4)ccc3nc2-1` [Compound S33], 50.6%. The same measure for `CC[C@@]1(O)C(=O)OCc2c1cc1n(c2=O)Cc2cc3cc(OC(=O)OCc4ccc(NC(=O)[C@H](CC(N)=O)NC(=O)[C@@H](NC(=O)[C@@H](NC(=O)COCCOC)C(C)C)C(C)C)cc4)ccc3nc2-1` [Compound S34]: 46.7%.

Take `CC[C@@]1(O)C(=O)OCc2c1cc1n(c2=O)Cc2cc3cc(OC(=O)OCc4ccc(NC(=O)[C@H](CC(N)=O)NC(=O)[C@H](CC(N)=O)NC(=O)[C@@H](NC(=O)COCCOC)C(C)C)cc4)ccc3nc2-1` [Compound S35]: the inhibition in vivo at 13.2 µmol/kg worked out at 58.6%. The same measure for `CC[C@H](C)[C@H](NC(=O)COCCOC)C(=O)N[C@@H](C)C(=O)N[C@@H](CC(N)=O)C(=O)Nc1ccc(COC(=O)Oc2ccc3nc4c(cc3c2)Cn2c-4cc3c(c2=O)COC(=O)[C@]3(O)CC)cc1` [Compound S36]: 52.5%; for `CC[C@H](C)[C@H](NC(=O)COCCOC)C(=O)N[C@H](C(=O)N[C@@H](CC(N)=O)C(=O)Nc1ccc(COC(=O)Oc2ccc3nc4c(cc3c2)Cn2c-4cc3c(c2=O)COC(=O)[C@]3(O)CC)cc1)[C@@H](C)O` [Compound S37]: 46.7%; for `CC[C@H](C)[C@H](NC(=O)COCCOC)C(=O)N[C@H](C(=O)N[C@@H](CC(N)=O)C(=O)Nc1ccc(COC(=O)Oc2ccc3nc4c(cc3c2)Cn2c-4cc3c(c2=O)COC(=O)[C@]3(O)CC)cc1)C(C)C` [Compound S38]: 46.3%. The same measure for `CC[C@H](C)[C@H](NC(=O)COCCOC)C(=O)N[C@@H](CC(N)=O)C(=O)N[C@@H](CC(N)=O)C(=O)Nc1ccc(COC(=O)Oc2ccc3nc4c(cc3c2)Cn2c-4cc3c(c2=O)COC(=O)[C@]3(O)CC)cc1` [Compound S39]: 48.4%. As for `CC[C@@]1(O)C(=O)OCc2c1cc1n(c2=O)Cc2cc3cc(OC(=O)OCc4ccc(NC(=O)[C@H](CC(N)=O)NC(=O)[C@H](C)NC(=O)[C@H](C)NC(=O)COCCOC)cc4)ccc3nc2-1` [Compound S40], the figure is 80.5%; as for `CC[C@@]1(O)C(=O)OCc2c1cc1n(c2=O)Cc2cc3cc(OC(=O)OCc4ccc(NC(=O)[C@H](CC(N)=O)NC(=O)[C@@H](NC(=O)[C@H](C)NC(=O)COCCOC)[C@@H](C)O)cc4)ccc3nc2-1` [Compound S41], 64.6%. For the compound `CC[C@@]1(O)C(=O)OCc2c1cc1n(c2=O)Cc2cc3cc(OC(=O)OCc4ccc(NC(=O)[C@H](CC(N)=O)NC(=O)[C@@H](NC(=O)[C@H](C)NC(=O)COCCOC)C(C)C)cc4)ccc3nc2-1` [Compound S42], the inhibition in vivo at 13.2 µmol/kg is 66.6%. As for `CC[C@@]1(O)C(=O)OCc2c1cc1n(c2=O)Cc2cc3cc(OC(=O)OCc4ccc(NC(=O)[C@H](CC(N)=O)NC(=O)[C@H](CC(N)=O)NC(=O)[C@H](C)NC(=O)COCCOC)cc4)ccc3nc2-1` [Compound S43], the figure is 60.5%.
